# Values of other authors, collected in patent publication US20080242544A1, “Phytoactive Composition” (priority 2004, published 2008).
# Details: Table 5, no pH given; cited from earlier work
substance,measurement,value
MCPB,Log Pow,2.4
